Biological target: T1, TSHR (Homo sapiens, UniProt P16473)
T1 construct: Thyroid epithelial cells (passage 1) from healthy adult donors; endogenous in cells; host or cells: cryopreserved primary human thyrocytes (passage 1) from healthy adult donors
Experiment: TG mRNA expression induced by TSHR activators in 2D primary human thyrocytes (QPCR)
Assay type: cell-based
Details: 2D culture, TSHR activator for 8 days, donors n=3; read-out: half-maximal effective concentration (EC50), TG mRNA expression
Source text: Methods: Thyroid epithelial cells (passage 1) from healthy adult donors (males and females; ≤55 years of age; body mass index of ≤35) were cryopreserved in a serum-free biopreservation medium. Cryopreserved cells from individual donors (n=3) were thawed in human thyrocyte plating medium (HTPM) and plated in 96-well TC-treated culture plates. The thyrocytes were maintained in an h7H-based culture medium containing a TSHR activator for 8 days. Thyroglobulin (TG) mRNA and protein levels were determined using QPCR and ELISA, respectively.
Cell culture of cryopreserved thyrocytes: Thyrocytes from healthy donors were isolated as described in Example 1 and cryopreserved as in Example 2. […] The cryopreserved thyrocytes (p1) were thawed in h7H base human thyrocyte plating media (HTPM) and plated in 96-well TC-treated culture plates. Cell cultures were treated with native TSHR activators (bovine and human) or antibody-based activators (M22 IgG (+) and K1-18 IgG (+)) on day 2-8.
Assay analysis: For mRNA analysis, total RNA was isolated using Qiagen RNEasy Mini Kit (Qiagen, 74106) and quantified with NanoDrop 8000 spectrophotometer (ThermoFisher, ND-8000-GL). […]

Amino acid sequences for entries named in this document (tags omitted). Residues count along the entry.
UniProt P16473, 21-764: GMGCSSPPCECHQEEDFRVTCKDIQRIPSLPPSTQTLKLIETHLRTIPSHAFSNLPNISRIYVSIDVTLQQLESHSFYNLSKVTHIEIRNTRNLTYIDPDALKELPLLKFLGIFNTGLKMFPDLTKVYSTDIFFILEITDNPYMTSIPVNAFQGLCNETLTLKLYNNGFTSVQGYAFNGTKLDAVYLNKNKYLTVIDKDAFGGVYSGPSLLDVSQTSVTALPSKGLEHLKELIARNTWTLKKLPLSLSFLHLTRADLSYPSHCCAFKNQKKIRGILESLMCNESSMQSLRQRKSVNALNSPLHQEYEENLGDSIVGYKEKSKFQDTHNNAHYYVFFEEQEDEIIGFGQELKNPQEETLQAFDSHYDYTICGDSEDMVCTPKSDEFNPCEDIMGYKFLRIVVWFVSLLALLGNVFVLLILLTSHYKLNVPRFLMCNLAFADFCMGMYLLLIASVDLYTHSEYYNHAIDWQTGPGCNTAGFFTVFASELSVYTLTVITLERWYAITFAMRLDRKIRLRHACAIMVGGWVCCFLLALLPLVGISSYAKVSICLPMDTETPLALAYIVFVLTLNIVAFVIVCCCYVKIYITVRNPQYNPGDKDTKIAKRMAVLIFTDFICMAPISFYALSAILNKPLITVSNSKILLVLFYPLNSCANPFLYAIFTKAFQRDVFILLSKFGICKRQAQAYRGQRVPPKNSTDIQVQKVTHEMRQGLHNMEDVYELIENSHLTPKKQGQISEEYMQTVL

EC50: 0.384 nM
Substance: human TSH: native TSHR activator, human thyroid stimulating hormone

Reference: patent US20260275279A1, “THYROCYTES AND USES THEREOF” (LifeNet Health, priority 2023, published 2026)
